Protein sequences, listed by entry. Tags and fused reporters are not part of them. Residues count along the entry.
UniProt P00690, 16-511 limits assumed: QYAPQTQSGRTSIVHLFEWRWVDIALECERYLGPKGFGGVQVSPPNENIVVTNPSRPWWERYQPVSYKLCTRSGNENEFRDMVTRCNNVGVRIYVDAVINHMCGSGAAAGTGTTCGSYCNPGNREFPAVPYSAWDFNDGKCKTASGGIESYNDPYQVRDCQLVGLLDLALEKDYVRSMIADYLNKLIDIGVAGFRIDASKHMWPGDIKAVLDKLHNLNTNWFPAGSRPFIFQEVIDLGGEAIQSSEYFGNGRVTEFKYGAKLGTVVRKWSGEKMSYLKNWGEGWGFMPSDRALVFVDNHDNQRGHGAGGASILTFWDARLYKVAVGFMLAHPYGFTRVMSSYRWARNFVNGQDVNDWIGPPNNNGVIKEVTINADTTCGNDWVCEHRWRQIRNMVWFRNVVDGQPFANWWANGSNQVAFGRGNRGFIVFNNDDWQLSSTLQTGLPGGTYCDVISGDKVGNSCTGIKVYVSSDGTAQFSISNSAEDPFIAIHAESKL

According to publication PMC9571711, “New Biologically Hybrid Pharmacophore Thiazolidinone-Based Indole Derivatives: Synthesis, In Vitro Alpha-Amylase and Alpha-Glucosidase along with Molecular Docking Investigations” (Molecules, 2022):

Key:
[1] = molecular target: crude intestinal α-glucosidase; test: In vitro alpha-glucosidase inhibition (p-nitrophenyl-α-D-glucopyranoside); format: biochemical; details: read-out: Alpha-Glucosidase IC50 (µM ± SEM)
α-amylase = α-amylase (Sus scrofa, UniProt P00690); test: In vitro alpha-amylase inhibition (starch/DNS method); details: read-out: Alpha-Amylase IC50 (µM ± SEM)

IC50 [1]	IC50 (α-amylase)	Structure (SMILES)
6.2 µM	5.6 µM	O=C1N/C(=N/c2nccs2)S/C1=C\c1cc([N+](=O)[O-])c2cc[nH]c2c1
5.8 µM	4.7 µM	O=C1N/C(=N/c2nccs2)S/C1=C\c1cc2[nH]ccc2cc1[N+](=O)[O-]
11.5 µM	10.7 µM	O=C1N/C(=N/c2nccs2)S/C1=C\c1ccc2cc[nH]c2c1Cl
